34 compounds from patent US10730889B2, “Amido spirocyclic amide and sulfonamide derivatives” (Forma TM, LLC, priority 2012, dated 2020) can be followed below.

Sequences of proteins named here, by UniProt entry; tags and fusion partners are left off. A change or cut given only in a name is not applied to a line headed by its entry.
UniProt P43490: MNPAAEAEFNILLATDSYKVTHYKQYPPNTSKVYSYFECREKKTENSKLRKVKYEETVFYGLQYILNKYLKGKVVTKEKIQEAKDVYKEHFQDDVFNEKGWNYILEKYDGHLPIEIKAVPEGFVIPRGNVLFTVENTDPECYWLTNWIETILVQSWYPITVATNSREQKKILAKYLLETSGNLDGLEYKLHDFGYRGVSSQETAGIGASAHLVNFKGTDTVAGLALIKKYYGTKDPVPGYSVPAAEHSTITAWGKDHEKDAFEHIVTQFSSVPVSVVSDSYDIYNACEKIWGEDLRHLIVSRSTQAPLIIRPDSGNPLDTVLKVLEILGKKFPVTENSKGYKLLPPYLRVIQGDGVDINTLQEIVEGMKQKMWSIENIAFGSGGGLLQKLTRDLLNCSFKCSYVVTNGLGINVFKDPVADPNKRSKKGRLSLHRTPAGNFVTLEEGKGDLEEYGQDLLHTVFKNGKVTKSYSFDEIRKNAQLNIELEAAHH

For this experiment, the target named is NAMPT (Homo sapiens (Human), UniProt P43490). Put plainly: Biochemical inhibition assay (NAMPT enzymatic reaction, NMN quantified by mass spectrometry).
By IC50 is commonly meant the concentration that gives 50% inhibition. A high value points to lower potency. For the compound `O=C(NCC1CC12CCN(C(=O)CCN1CCOCC1)CC2)c1cc2ccncc2o1` (stereo not shown) [Example 65, N-[[6-(3-morpholinopropanoyl)-6-azaspiro[2.5]octan-2-yl]methyl]furo[2,3-c]pyridine-2-carboxamide], half-maximal inhibition (IC50) required 526 nM.

On to `O=C(NCC1CC12CCN(C(=O)C1CCS(=O)(=O)C1)CC2)c1cc2ccncc2o1` (stereo not shown) [Example 66, N-[[6-(1,1-dioxothiolane-3-carbonyl)-6-azaspiro[2.5]octan-2-yl]methyl]furo[2,3-c]pyridine-2-carboxamide], for which the 50% inhibitory concentration (IC50) is 1040 nM.

`Cc1cc(C)n(CC(=O)N2CCC3(CC2)CC3CNC(=O)c2cc3ccncc3o2)n1` (stereo not shown) [Example 67, N-[[6-[2-(3,5-dimethylpyrazol-1-yl)acetyl]-6-azaspiro[2.5]octan-2-yl]methyl]furo[2,3-c]pyridine-2-carboxamidc] returned an IC50 of 210 nM.

Regarding `CC(=O)N1CCCC1C(=O)N1CCC2(CC1)CC2CNC(=O)c1cc2ccncc2o1` (stereo not shown) [Example 68, N-[[6-(1-acetylpyrrolidine-2-carbonyl)-6-azaspiro[2.5]octan-2-yl]methyl]furo[2,3-c]pyridine-2-carboxamide], the half-inhibitory concentration (IC50) is 812 nM.

In turn, `CS(=O)(=O)c1ccccc1C(=O)N1CCC2(CC1)CC2CNC(=O)c1cc2ccncc2o1` (stereo not shown) [Example 69, N-[[6-(2-methylsulfonylbenzoyl)-6-azaspiro[2.5]octan-2-yl]methyl]furo[2,3-c]pyridine-2-carboxamide] had an IC50 of 386 nM.

In the case of `O=C(NCC1CC12CCN(C(=O)c1cccc(-n3cnnc3)c1)CC2)c1cc2ccncc2o1` (stereo not shown) [Example 70, N-[[6-[3-(1,2,4-triazol-4-yl)benzoyl]-6-azaspiro[2.5]octan-2-yl]methyl]furo[2,3-c]pyridine-2-carboxamide], the IC50 came out at 68.1 nM.

Regarding `CC(=O)Nc1ccc(C(=O)N2CCC3(CC2)CC3CNC(=O)c2cc3ccncc3o2)cc1` (stereo not shown) [Example 72, N-[[6-(4-acetamidobenzoyl)-6-azaspiro[2.5]octan-2-yl]methyl]furo[2,3-c]pyridine-2-carboxamide], the concentration for half-maximal inhibition (IC50) came out at 33.8 nM.

`CS(=O)(=O)N1CCCC(C(=O)N2CCC3(CC2)CC3CNC(=O)c2cc3ccncc3o2)C1` (stereo not shown) [Example 73, N-[[6-(1-methylsulfonylpiperidine-3-carbonyl)-6-azaspiro[2.5]octan-2-yl]methyl]furo[2,3-c]pyridine-2-carboxamide] showed a half-inhibitory concentration (IC50) of 57.4 nM.

On to `CS(=O)(=O)N1CCC(C(=O)N2CCC3(CC2)CC3CNC(=O)c2cc3ccncc3o2)CC1` (stereo not shown) [Example 74, N-[[6-(1-methylsulfonylpiperidine-4-carbonyl)-6-azaspiro[2.5]octan-2-yl]methyl]furo[2,3-c]pyridine-2-carboxamide], for which the IC50 is 231 nM.

On to `CC(C(=O)N1CCC2(CC1)CC2CNC(=O)c1cc2ccncc2o1)N1CCOCC1` (stereo not shown) [Example 75, N-[[6-(2-morpholinopropanoyl)-6-azaspiro[2.5]octan-2-yl]methyl]furo[2,3-c]pyridine-2-carboxamide], for which half-maximal inhibition (IC50) required 109 nM.

For the compound `CS(=O)(=O)N1CCCC1C(=O)N1CCC2(CC1)CC2CNC(=O)c1cc2ccncc2o1` (stereo not shown) [Example 76, N-[[6-(1-methylsulfonylpyrrolidine-2-carbonyl)-6-azaspiro[2.5]octan-2-yl]methyl]furo[2,3-c]pyridine-2-carboxamide], the concentration for half-maximal inhibition (IC50) stood at 214 nM.

Turning to `O=C(NCC1CC12CCN(C(=O)CC1NC(=O)c3ccccc31)CC2)c1cc2ccncc2o1` (stereo not shown) [Example 77, N-[[6-[2-(3-oxoisoindolin-1-yl)acetyl]-6-azaspiro[2.5]octan-2-yl]methyl]furo[2,3-c]pyridine-2-carboxamide], the half-inhibitory concentration (IC50) was 169 nM.

For `NC(=O)N1CCC(C(=O)N2CCC3(CC2)CC3CNC(=O)c2cc3ccncc3o2)CC1` (stereo not shown) [Example 78, N-[[6-(1-carbamoylpiperidme-4-carbonyl)-6-azaspiro[2.5]octan-2-y]methyl]furo(2,3-c]pyridine-2-carboxamide], it took 296 nM to reach half-maximal inhibition (IC50).

As to `NC(=O)N1CCCC(C(=O)N2CCC3(CC2)CC3CNC(=O)c2cc3ccncc3o2)C1` (stereo not shown) [Example 79, N-[[6-(1-carbamoylpiperidine-3-carbonyl)-6-azaspiro[2.5]octan-2-yl]methyl]furo[2,3-c]pyridine-2-carboxamide], the concentration for half-maximal inhibition (IC50) amounted to 755 nM.

Compound `O=C(NCC1CC12CCN(C(=O)CC1CCS(=O)(=O)C1)CC2)c1cc2ccncc2o1` (stereo not shown) [Example 80, N-[[6-[2-(1,1-dioxothiolan-3-yl)acetyl]-6-azaspiro[2.5]octan-2-yl]methyl]furo[2,3-c]pyridine-2-carboxamide] gave an IC50 of 244 nM.

With `O=C(NCC1CC12CCN(C(=O)Cn1ccc(=O)[nH]c1=O)CC2)c1cc2ccncc2o1` (stereo not shown) [Example 81, N-[[6-[2-(2,4-dioxopyrimidin-1-yl)acetyl]-6-azaspiro[2.5]octan-2-yl]methyl]furo[2,3-c]pyridine-2-carboxamide], the IC50 is 626 nM.

With `CC(=O)N1CCC(C(=O)N2CCC3(CC2)CC3CNC(=O)c2cc3ccncc3o2)CC1` (stereo not shown) [Example 82, N-[[6-(1-acetylpiperidine-4-carbonyl)-6-azaspiro[2.5]octan-2-yl]methyl]furo[2,3-c]pyridine-2-carboxamide], it took 398 nM to reach half-maximal inhibition (IC50).

The compound `O=C(NCC1CC12CCN(C(=O)c1ccc(Cn3cnnn3)cc1)CC2)c1cc2ccncc2o1` (stereo not shown) [Example 83, N-[[6-[4-(tetrazol-1-ylmethyl)benzoyl]-6-azaspiro[2.5]octan-2-yl]methyl]furo[2,3-c]pyridine-2-carboxamide] came in with an IC50 of 211 nM.

`CS(=O)(=O)Nc1ccc(C(=O)N2CCC3(CC2)CC3CNC(=O)c2cc3ccncc3o2)cc1` (stereo not shown) [Example 84, N-[[6-[4-(methanesulfonamido)benzoyl]-6-azaspiro[2.5]octan-2-yl]methyl]furo[2,3-c]pyridine-2-carboxamide] yielded an IC50 of 76.7 nM.

In turn, `O=C(NCC1CC12CCN(C(=O)c1ccc(N3CCS(=O)(=O)CC3)cc1)CC2)c1cc2ccncc2o1` (stereo not shown) [Example 85, N-[[6-[4-(1,1-dioxo-1,4-thiazinan-4-yl)benzoyl]-6-azaspiro[2.5]octan-2-yl)methyl]furo[2,3-c]pyridine-2-carboxamide] gave an IC50 of 38.8 nM.

As for `CN1CCN(Cc2ccc(C(=O)N3CCC4(CC3)CC4CNC(=O)c3cc4ccncc4o3)cc2)CC1` (stereo not shown) [Example 86, N-[[6-[4-[(4-methylpiperazin-1-yl)methyl]benzoyl]-6-azaspiro[2.5]octan-2-yl]methyl]furo[2,3-c]pyridine-2-carboxamide], it took 30 nM to reach half-maximal inhibition (IC50).

`CN1CCN(Cc2ccccc2C(=O)N2CCC3(CC2)CC3CNC(=O)c2cc3ccncc3o2)CC1` (stereo not shown) [Example 87, N-[[6-[2-[(4-methylpiperazin-1-yl)methyl]benzoyl]-6-azaspiro[2.5]octan-2-yl]methyl]furo[2,3-c]pyridine-2-carboxamide] came in with an IC50 of 802 nM.

The compound `CN1CCN(Cc2cccc(C(=O)N3CCC4(CC3)CC4CNC(=O)c3cc4ccncc4o3)c2)CC1` (stereo not shown) [Example 88, N-[[6-[3-[(4-methylpiperazin-1-yl)methyl]benzoyl]-6-azaspiro[2.5]octan-2-yl]methyl]furo[2,3-c]pyridine-2-carboxamide] yielded a half-maximal inhibitory concentration (IC50) of 22 nM.

In turn, `CN1CCN(CCC(=O)N2CCC3(CC2)CC3CNC(=O)c2cc3ccncc3o2)CC1` (stereo not shown) [Example 89, N-[[6-[3-(4-methylpiperazin-1-yl)propanoyl]-6-azaspiro[2.5]octan-2-yl]methyl]furo[2,3-c]pyridine-2-carboxamide] returned a half-maximal inhibitory concentration (IC50) of 228 nM.

The compound `CC(C)N1CC(C(=O)N2CCC3(CC2)CC3CNC(=O)c2cc3ccncc3o2)CC1=O` (stereo not shown) [Example 90, N-[[6-(1-isopropyl-5-oxo-pyrrolidine-3-carbonyl)-6-azaspiro[2.5]octan-2-yl)methyl]furo[2,3-c]pyridine-2-carboxamide] returned an IC50 of 149 nM.

Regarding `O=C1CN(CC(=O)N2CCC3(CC2)CC3CNC(=O)c2cc3ccncc3o2)CCN1` (stereo not shown) [Example 91, N-[[6-[2-(3-oxopiperazin-1-yl)acetyl]-6-azaspiro[2.5]octan-2-yl]methyl]furo[2,3-c]pyridine-2-carboxamide], the IC50 came out at 474 nM.

On to `CS(=O)(=O)c1cccc(C(=O)N2CCC3(CC2)CC3CNC(=O)c2cc3ccncc3o2)c1` (stereo not shown) [Example 92, N-[[6-(3-methylsulfonylbenzoyl)-6-azaspiro[2.5]octan-2-yl]methyl]furo[2,3-c]pyridine-2-carboxamide], for which it took 189 nM to reach half-maximal inhibition (IC50).

Compound `CS(=O)(=O)c1ccc(C(=O)N2CCC3(CC2)CC3CNC(=O)c2cc3ccncc3o2)cc1` (stereo not shown) [Example 93, N-[[6-(4-methylsulfonylbenzoyl)-6-azaspiro[2.5]octan-2-yl]methyl]furo[2,3-c]pyridine-2-carboxamide] came in with an IC50 of 475 nM.

For `NC(=O)Nc1ccc(C(=O)N2CCC3(CC2)CC3CNC(=O)c2cc3ccncc3o2)cc1` (stereo not shown) [Example 94, N-[[6-(4-ureidobenzoyl)-6-azaspiro[2.5]octan-2-yl]methyl]furo[2,3-c]pyridine-2-carboxamide], half-maximal inhibition (IC50) was put at 70.6 nM.

`CC(=O)N1CCN(CC(=O)N2CCC3(CC2)CC3CNC(=O)c2cc3ccncc3o2)CC1` (stereo not shown) [Example 95, N-[[6-[2-(4-acetylpiperazin-1-yl)acetyl]-6-azaspiro[2.5]octan-2-yl]methyl]furo[2,3-c]pyridine-2-carboxamide]: 426 nM corresponded to half-maximal inhibition (IC50).

`O=C(NCC1CC12CCN(C(=O)c1ccncc1)CC2)c1cc2ccncc2o1` (stereo not shown) [Example 97, N-[[6-(pyridine-4-carbonyl)-6-azaspiro[2.5]octan-2-yl]methyl]furo[2,3-c]pyridine-2-carboxamide] came in with an IC50 of 421 nM.

Consider `O=C(NCC1CC12CCN(C(=O)c1ccccn1)CC2)c1cc2ccncc2o1` (stereo not shown) [Example 98, N-[[6-(pyridine-2-carbonyl)-6-azaspiro[2.5]octan-2-yl]methyl]furo[2,3-c]pyridine-2-carboxamide], for which the IC50 turned out to be 504 nM.

In turn, `O=C(NCC1CC12CCN(C(=O)c1cocn1)CC2)c1cc2ccncc2o1` (stereo not shown) [Example 99, N-[[6-(oxazole-4-carbonyl)-6-azaspiro[2.5]octan-2-yl]methyl]furo[2,3-c]pyridine-2-carboxamide] came in with a concentration for half-maximal inhibition (IC50) of 826 nM.

`O=C(NCC1CC12CCN(C(=O)c1nc[nH]n1)CC2)c1cc2ccncc2o1` (stereo not shown) [Example 100, N-[[6-(1H-1,2,4-triazole-3-carbonyl)-6-azaspiro[2.5]octan-2-yl]methyl]furo[2,3-c]pyridine-2-carboxamide] showed a half-inhibitory concentration (IC50) of 462 nM.
